From PubChem BioAssay AID2102 (Southern Research Specialized Biocontainment Screening …, 2009)
This is a selection; strong and weak results do not stand in their true shares. Results with a measured potency or affinity are listed apart. Activity calls are given as the source filed them. The rule behind the calls is not given here.

Experiment: host cell cytotoxicity, dose response, cytotoxicity control for SV40 T antigen inhibitor project, selected hits (AID 2102);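 note: cells exposed to compounds for 72 hours; 100% = mean of untreated cell control wells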
Conditions: Host cell viability cytotoxicity counter-screen; at 50 µM (top of the series)

Compound	viability
COc1ccc(NC2CCN(C(=O)OC(C)(C)C)CC2)cc1	inactive: 85.4%
CCOC(=O)N1CCC(Nc2ccc(OC)cc2)CC1	inactive: 108%
